Results as given in ChEMBL document CHEMBL6182920, “The Discovery of C7-Substituted Norbornyl Bisamides as RXFP1 Small Molecule Agonists” (J Med Chem, 2025).

How the values were obtained:
[1] = target: T1, Relaxin receptor 1 (Mus musculus) (UniProt Q6R6I7); experiment: Agonist activity at mouse RXFP1 stably expressed in HEK293 cells assessed as intracellular cAMP accumulation by measuring maximal efficacy incubated for 30 mins by HTRF assay relative to control; type: functional, cell-based
T1 sequence (whole entry): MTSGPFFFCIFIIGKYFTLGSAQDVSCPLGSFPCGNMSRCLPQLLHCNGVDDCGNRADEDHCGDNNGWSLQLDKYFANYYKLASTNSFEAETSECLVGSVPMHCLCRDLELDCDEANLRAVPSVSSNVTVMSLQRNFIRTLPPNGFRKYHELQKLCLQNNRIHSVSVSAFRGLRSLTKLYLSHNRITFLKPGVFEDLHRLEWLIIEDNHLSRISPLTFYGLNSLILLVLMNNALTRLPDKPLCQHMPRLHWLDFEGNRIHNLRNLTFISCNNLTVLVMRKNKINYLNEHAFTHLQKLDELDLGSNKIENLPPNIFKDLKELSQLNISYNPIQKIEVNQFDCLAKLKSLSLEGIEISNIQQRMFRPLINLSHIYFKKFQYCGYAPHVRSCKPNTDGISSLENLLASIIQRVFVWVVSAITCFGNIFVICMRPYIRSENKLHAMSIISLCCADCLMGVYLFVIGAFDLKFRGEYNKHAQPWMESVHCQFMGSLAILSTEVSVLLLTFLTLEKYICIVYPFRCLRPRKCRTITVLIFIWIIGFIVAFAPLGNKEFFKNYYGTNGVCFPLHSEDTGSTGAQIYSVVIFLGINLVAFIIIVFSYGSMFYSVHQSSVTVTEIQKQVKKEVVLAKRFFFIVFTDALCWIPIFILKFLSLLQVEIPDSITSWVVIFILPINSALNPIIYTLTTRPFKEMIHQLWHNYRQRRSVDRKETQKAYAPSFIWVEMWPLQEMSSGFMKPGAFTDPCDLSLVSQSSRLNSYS

[2] = target: T2, Relaxin receptor 1 (Rattus norvegicus) (UniProt Q6R6I6); experiment: Agonist activity at rat RXFP1 stably expressed in HEK293 cells at 10 uM incubated for 30 mins by HTRF assay; type: cell-based
T2 sequence (whole entry): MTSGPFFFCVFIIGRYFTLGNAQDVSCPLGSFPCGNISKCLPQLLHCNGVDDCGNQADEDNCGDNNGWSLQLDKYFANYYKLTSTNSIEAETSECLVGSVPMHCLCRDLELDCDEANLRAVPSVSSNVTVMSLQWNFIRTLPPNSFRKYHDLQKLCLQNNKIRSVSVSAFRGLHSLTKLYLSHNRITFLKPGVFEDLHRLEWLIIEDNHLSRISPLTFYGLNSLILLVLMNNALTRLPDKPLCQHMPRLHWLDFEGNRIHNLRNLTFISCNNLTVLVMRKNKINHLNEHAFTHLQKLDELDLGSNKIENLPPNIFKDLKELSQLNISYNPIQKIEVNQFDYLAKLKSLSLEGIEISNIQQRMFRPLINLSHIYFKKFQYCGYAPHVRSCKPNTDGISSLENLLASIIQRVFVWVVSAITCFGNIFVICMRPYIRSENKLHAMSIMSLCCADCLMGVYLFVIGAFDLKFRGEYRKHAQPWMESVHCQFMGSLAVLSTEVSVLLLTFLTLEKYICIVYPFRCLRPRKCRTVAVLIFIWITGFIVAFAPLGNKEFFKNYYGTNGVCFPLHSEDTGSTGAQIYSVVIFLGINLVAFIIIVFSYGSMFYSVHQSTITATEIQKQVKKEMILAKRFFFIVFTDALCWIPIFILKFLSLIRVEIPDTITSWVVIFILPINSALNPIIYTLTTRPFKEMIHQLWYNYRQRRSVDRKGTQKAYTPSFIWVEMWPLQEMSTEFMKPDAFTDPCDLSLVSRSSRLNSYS

Compound | Emax ([1]; filed as agonist) | Activity [2] | other results
COc1ccc(-c2cc(C(=O)O)ccc2OC)cc1C(=O)N[C@H]1[C@@H](C(=O)Nc2ccc(F)c(C(F)(F)F)c2)[C@H]2CC[C@@H]1C2=C(C)C | 90% | – | –
COc1cc(F)c(F)cc1C(=O)N[C@H]1[C@@H](C(=O)Nc2ccc(F)c(C(F)(F)F)c2)[C@H]2CC[C@@H]1/C2=C\C(F)(F)F | – | inactive | –
COc1ccc(-c2ccncc2)cc1C(=O)N[C@H]1[C@@H](C(=O)Nc2ccc(F)c(C(F)(F)F)c2)[C@H]2CC[C@@H]1C2=C(C)C | – | – | Emax [1]: 7%
COc1ccc(-c2cccnc2)cc1C(=O)N[C@H]1[C@@H](C(=O)Nc2ccc(F)c(C(F)(F)F)c2)[C@H]2CC[C@@H]1C2=C(C)C | – | – | Emax [1]: 30%
COc1cc(F)c(F)cc1C(=O)N[C@H]1[C@@H](C(=O)Nc2ccc(F)c(C(F)(F)F)c2)[C@H]2CC[C@@H]1C2=CC1CC1 | – | inactive | –
C=C1[C@H]2CC[C@@H]1[C@H](C(=O)Nc1ccc(F)c(C(F)(F)F)c1)[C@@H]2NC(=O)c1cc(F)c(F)cc1OC | – | inactive | –
COc1cc(F)c(F)cc1C(=O)N[C@H]1[C@@H](C(=O)Nc2ccc(F)c(C(F)(F)F)c2)[C@H]2CC[C@@H]1/C2=C\c1cocn1 | – | inactive | –
COc1ccc(-c2cncn2C)cc1C(=O)N[C@H]1[C@@H](C(=O)Nc2ccc(F)c(C(F)(F)F)c2)[C@H]2CC[C@@H]1C2=C(C)C | 40% | – | –
COc1ccc(-c2cc(C(=O)O)ccc2F)cc1C(=O)N[C@H]1[C@@H](C(=O)Nc2ccc(F)c(C(F)(F)F)c2)[C@H]2CC[C@@H]1/C2=C\c1ccccc1 | 94% | – | –
COc1cc(F)c(F)cc1C(=O)N[C@H]1[C@@H](C(=O)Nc2ccc(F)c(C(F)(F)F)c2)[C@@H]2CC[C@@H]1C2C(C)C (stereo in doubt) | – | inactive | –
COc1cc(F)c(F)cc1C(=O)N[C@H]1[C@@H](C(=O)Nc2ccc(F)c(C(F)(F)F)c2)[C@H]2CC[C@@H]1/C2=C1/C=Cc2ccccc21 | – | inactive | –
COc1ccc(-c2cccc(C(=O)O)c2)cc1C(=O)N[C@H]1[C@@H](C(=O)Nc2ccc(F)c(C(F)(F)F)c2)[C@H]2CC[C@@H]1C2=C(C)C | 110% | – | –
COc1cc(F)c(F)cc1C(=O)N[C@H]1[C@@H](C(=O)Nc2ccc(F)c(C(F)(F)F)c2)[C@H]2CC[C@@H]1/C2=C\c1c(Cl)cccc1Cl | – | inactive | –
COc1cc(F)c(F)cc1C(=O)N[C@H]1[C@@H](C(=O)Nc2ccc(F)c(C(F)(F)F)c2)[C@H]2CC[C@@H]1/C2=C/c1ccccc1 | – | inactive | –
COc1ccc(-c2cc(C(=O)O)ccc2F)cc1C(=O)N[C@H]1[C@@H](C(=O)Nc2ccc(F)c(C(F)(F)F)c2)[C@H]2CC[C@@H]1C2=C(C)C | 110% | – | –
COc1ccc(-c2cncnc2)cc1C(=O)N[C@H]1[C@@H](C(=O)Nc2ccc(F)c(C(F)(F)F)c2)[C@H]2CC[C@@H]1C2=C(C)C | 46% | – | –
COc1cc(F)c(F)cc1C(=O)N[C@@H]1[C@@H]2CC[C@@H](C2)[C@@H]1C(=O)Nc1ccc(F)c(C(F)(F)F)c1 | – | inactive | –
COc1ccc(-c2cc(O)ccc2F)cc1C(=O)N[C@H]1[C@@H](C(=O)Nc2ccc(F)c(C(F)(F)F)c2)[C@H]2CC[C@@H]1/C2=C\c1cnoc1 | 74% | – | –
COc1ccc(-c2cc(C(=O)O)ccc2C)cc1C(=O)N[C@H]1[C@@H](C(=O)Nc2ccc(F)c(C(F)(F)F)c2)[C@H]2CC[C@@H]1C2=C(C)C | 110% | – | –
COc1ccc(-c2ccccc2C(=O)O)cc1C(=O)N[C@H]1[C@@H](C(=O)Nc2ccc(F)c(C(F)(F)F)c2)[C@H]2CC[C@@H]1C2=C(C)C | – | – | Emax [1]: 3%
COC(=O)c1ccc(F)c(-c2ccc(OC)c(C(=O)N[C@H]3[C@@H](C(=O)Nc4ccc(F)c(C(F)(F)F)c4)[C@H]4CC[C@@H]3C4=C(C)C)c2)c1 | – | – | Emax [1]: 22%
COc1ccc(-c2cc(C(N)=O)ccc2F)cc1C(=O)N[C@H]1[C@@H](C(=O)Nc2ccc(F)c(C(F)(F)F)c2)[C@H]2CC[C@@H]1/C2=C\c1cnoc1 | 86% | – | –
COc1ccc(-c2cc(C(=O)O)ccc2F)cc1C(=O)N[C@H]1[C@@H](C(=O)Nc2ccc(F)c(C(F)(F)F)c2)[C@H]2CC[C@@H]1/C2=C\C1CC1 | 140% | – | –

Calls of active or inactive are those of the source. The rule behind the calls is not given here.
